Assay [1] addresses rabbit bone collagenase (Oryctolagus cuniculus, UniProt P13943). In words: Collagenase inhibitor assay, rabbit bone collagenase (14C-collagen fibril degradation). To be noted: read-out: IC50, Inhibition of rabbit bone collagenase; collagenase purified from cultures of rabbit bone; 14C-acetylated collagen substrate, 37° C. overnight. As for the experimental part: (§1) The test is performed essentially as in Cawston and Barrett, Anal. Biochem. 99, 340-345 (1979). Compounds for testing are dissolved in methanol and added to collagenase (purified from cultures of rabbit bone or from culture supernatants from the human lung fibroblast cell line, WI-38) in buffer. In order to ensure that thiol collagenase inhibitors remained unoxidised, β-mercaptoethanol may be incorporated in the methanol solvent and/or the diluent buffers. The minimal direct effect of β-mercaptoethanol on the degradation of collagen by human or rabbit collagenase is controlled for. After a 5-15 min pre-incubation at 37° C., the assay tubes are cooled to 4° C. and ^14 C-acetylated rat skin […] collagen is added. The assay tubes are incubated at 37° C. overnight. The ^14 C-collagen forms insoluble fibrils which are the substrate for the enzyme.
(§2) To terminate the assay, the assay tubes are spun at 12000 rpm for 15 min. Undigested ^14 C-collagen is pelleted, while digested ^14 C-collagen is found as soluble peptides in the supernatant. A sample of the supernatant is taken for liquid scintillation counting.
(§3) The activity of collagenase inhibitors (IC50 : 50% inhibitory concentration) is expressed as that concentration of compound that inhibits a known (standard) concentration of enzyme by 50%.

The chains behind the UniProt entries cited, without tags or fusion partners. Residues count along the entry.
UniProt P13943, 99-468 limits assumed: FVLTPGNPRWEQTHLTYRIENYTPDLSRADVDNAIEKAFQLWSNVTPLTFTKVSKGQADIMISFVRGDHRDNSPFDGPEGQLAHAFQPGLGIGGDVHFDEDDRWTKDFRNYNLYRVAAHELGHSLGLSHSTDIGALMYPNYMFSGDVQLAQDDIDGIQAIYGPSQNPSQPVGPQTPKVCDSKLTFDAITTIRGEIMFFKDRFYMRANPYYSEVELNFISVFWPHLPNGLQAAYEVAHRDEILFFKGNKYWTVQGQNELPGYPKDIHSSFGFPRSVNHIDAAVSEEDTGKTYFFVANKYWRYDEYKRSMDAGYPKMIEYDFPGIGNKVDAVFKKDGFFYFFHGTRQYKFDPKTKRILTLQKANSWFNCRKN
UniProt P03956, 100-469 limits assumed: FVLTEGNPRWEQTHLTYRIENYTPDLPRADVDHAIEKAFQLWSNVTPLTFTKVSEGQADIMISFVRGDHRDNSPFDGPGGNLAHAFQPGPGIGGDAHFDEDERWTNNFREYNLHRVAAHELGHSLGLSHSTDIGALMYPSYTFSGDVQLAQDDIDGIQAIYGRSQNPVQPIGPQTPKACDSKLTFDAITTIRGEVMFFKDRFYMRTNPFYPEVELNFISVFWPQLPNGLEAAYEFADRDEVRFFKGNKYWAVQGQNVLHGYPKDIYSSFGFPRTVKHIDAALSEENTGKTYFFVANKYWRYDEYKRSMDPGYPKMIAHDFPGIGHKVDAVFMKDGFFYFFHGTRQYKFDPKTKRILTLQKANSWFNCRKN

In assay [2] the target is human lung fibroblast collagenase (Homo sapiens, UniProt P03956). In words: Collagenase inhibitor assay, human lung fibroblast collagenase (14C-collagen fibril degradation). As to conditions: collagenase from WI-38 culture supernatants. The method, then: as §1, §2, §3

Where two headings read alike, the source gives them in different places.

In US5124322A, “Dipeptide collagenase inhibitors” (Beecham Group p.l.c., priority 1988, dated 1992) one finds IC50 data, which are given here for two compounds.

Regarding `CNC(=O)[C@H](Cc1ccc(OC)cc1)NC(=O)C(Cc1ccccc1S)CC(C)C` (single isomer, unassigned) [1 A], in assay [1], the IC50 – broadly, the concentration at which inhibition is half-maximal – was 1.9 µM.

As to `CNC(=O)[C@H](Cc1ccc(OC)cc1)NC(=O)C(Cc1ccccc1S)CC(C)C` (single isomer, unassigned) [1 B], the IC50 in assay [1] was 1.4 µM; in assay [2] (read-out: IC50, Inhibition of human lung fibroblast collagenase, +mercaptoethanol, * = +mercaptoethanol), 0.024 µM; in assay [2] (read-out: IC50, Inhibition of human lung fibroblast collagenase, without mercaptoethanol) it was 0.71 µM.
